This data set has as its system Caco-2 cell monolayers. Description: In vitro permeability assay with Caco2 cells. How it is done:
They were grown on Transwell® culture inserts with a polycarbonate membrane (diameter, 12 mm; pore size, 0.4 μm). 50,000 cells/filter membranes were used for seeding and the medium was changed every two days. At day 18, transepithelial electrical resistance (TEER) was measured for each filter with Caco-2 cell monolayers. […] The samples were acidified by dilution with the same volume of 0.01 M HCl before fluorescence measurements.
Ringer buffer with 10 mM d-glucose or 10 mM mannitol on apical and basolateral side of the tissue, respectively, was used as an incubation saline. […] The experiment started by the addition of stock solutions of (±)-N-((1-benzylpiperidin-3-yl)methyl)-N-(2-methoxyethyl)naphthalene-2-sulfonamide hydrochloride and fluorescein in the donor compartment to provide final 100 μM donor concentration of (±)-N-((1-benzylpiperidin-3-yl)methyl)-N-(2-methoxyethyl)naphthalene-2-sulfonamide and 20 μM fluorescein. The stock solutions were added either to the apical or to the basolateral compartment to obtain bidirectional permeability measurements. Six samples were withdrawn in 20 min intervals. Each time 300 μl was taken from the 1500 μL basolateral acceptor compartment and 100 μL from the 500 μL apical acceptor compartment. These volumes were immediately replaced by the appropriate fresh incubation saline. The concentrations of (±)-N-((1-benzylpiperidin-3-yl)methyl)-N-(2-methoxyethyl)naphthalene-2-sulfonamide in the samples were determined by HPLC-UV immediately after the experiment.
(In general: Caco-2 cells form a polarised layer with tight junctions and transporters.)

The mark [1] stands for this setting: Caco-2, after inhibition with PSC833.
Where [2] appears, read: Caco-2 monolayers, no inhibitor.

On to Rhodamine123, for which, under setting [1], the “apical-to-basolateral apparent permeability coefficient” value amounted to 1 ×10⁻⁶ cm/s and the “basolateral-to-apical apparent permeability coefficient” value amounted to 2.5 ×10⁻⁶ cm/s. Besides, the Efflux ratio (Caco-2, after inhibition with selective ABCB1 inhibitor PSC833) is on record as 2.5. For the same substance, under setting [2], the “Efflux ratio Papp(B-A)/Papp(A-B)” value worked out at 7.3; the “Papp(A-B), apical-to-basolateral apparent permeability coefficient” value was found to be 1.1 ×10⁻⁶ cm/s; the “Papp(B-A), basolateral-to-apical apparent permeability coefficient” value worked out at 7.7 ×10⁻⁶ cm/s.

Values taken from patent US20230331674A1 (priority 2020, published 2023).
